Assay results taken from patent US20060079453A1, “Hla binding peptides and their uses” (priority 2002, published 2006).
Where two headings read alike, the source gives them in different places.

Tests used:
Assay in all cases: biochemical
Type in all cases: binding
[1] = molecular target: HLA-DR DRB1*0101 (DR1) (Homo sapiens, UniProt P01903+P01911, A100R/D57E/F55L/F60I/F76Y/I96L/L162R/M171V/P40L/Q125E/R42F/V115G/Y59C)
[2] = molecular target: HLA-DR DRB1*0301 (DR3) (Homo sapiens, UniProt P01903+P01911, A100K/A102G/A103R/A169T/F55Y/I96L/K41T/L162R/M171V/P40S/Q125H/Q178H/Q39Y/R42S/S66N/T106N/T262R/W38E/Y61H); conditions: read-out: DRB1 *0301
[3] = molecular target: HLA-DR DRB1*0401 (DR4) (Homo sapiens, UniProt P01903+P01911, A100K/A169T/F76Y/I96L/K127E/L162R/M171V/N62H/P40V/Q125Y/R42H/S133A/S149N/S66Y/V115G/V209L/W38E); conditions: read-out: DRB1 *0401
[4] = molecular target: HLA-DR DRB1*0701 (DR7) (Homo sapiens, UniProt P01903+P01911, A100R/A102G/A103Q/D57E/D86V/E43K/F76Y/K127E/L162R/M171V/P40G/Q125H/Q99D/R33Q/R42Y/R54Q/S133A/S66F/T210M/V115G/Y107V/Y59L/Y89S); conditions: read-out: DRB1 *0701
[5] = molecular target: HLA-DR DRB1*0802 (DR8) (Homo sapiens, UniProt P01903+P01911, A100R/A103L/A169T/F76Y/H45Y/I96F/K41T/L162R/M171V/P40S/Q125H/Q178H/Q39Y/Q99D/R218S/R42G/S66Y/V115G/W38E); conditions: read-out: DRB1 *0802

Row | Compound | IC50 ([1]; read-out: DRB1 *0101) [nM] | other results
1 | CC[C@H](C)[C@H](NC(=O)[C@@H](NC(=O)[C@H](CCCNC(=N)N)NC(=O)[C@H](CC(C)C)NC(=O)[C@@H]1CCCN1C(=O)[C@H](C)NC(=O)[C@H](C)NC(=O)[C@@H](N)CO)[C@@H](C)O)C(=O)N[C@H](C(=O)N[C@@H](C)C(=O)N[C@@H](CC(=O)O)C(=O)N[C@H](C(=O)N[C@@H](Cc1ccccc1)C(=O)N[C@@H](CCCNC(=N)N)C(=O)N[C@@H](CCCCN)C(=O)O)[C@@H](C)O)[C@@H](C)O | – | IC50 ([1]; DRB1 *0101): 1170 nM
2 | CC[C@H](C)[C@H](NC(=O)[C@H](CC(C)C)NC(=O)[C@H](CC(C)C)NC(=O)[C@H](CC(C)C)NC(=O)[C@H](CS)NC(=O)[C@@H](NC(=O)[C@H](CCCNC(=N)N)NC(=O)[C@H](CC(C)C)NC(=O)[C@H](CC(C)C)NC(=O)[C@H](CCC(=O)O)NC(=O)[C@H](CC(C)C)NC(=O)[C@H](CC(N)=O)NC(=O)[C@@H](N)CO)[C@@H](C)CC)C(=O)N[C@@H](CCC(N)=O)C(=O)N[C@@H](CO)C(=O)O | – | IC50 ([1]; DRB1 *0101): 731 nM
3 | CC(C)C[C@H](NC(=O)[C@@H](N)Cc1ccc(O)cc1)C(=O)N[C@H](C(=O)N[C@@H](CS)C(=O)NCC(=O)N[C@@H](CCC(=O)O)C(=O)N[C@@H](CCCNC(=N)N)C(=O)NCC(=O)N[C@@H](Cc1ccccc1)C(=O)N[C@@H](Cc1ccccc1)C(=O)N[C@@H](Cc1ccc(O)cc1)C(=O)N[C@H](C(=O)N[C@@H](CC(=O)O)C(=O)N[C@@H](CCCCN)C(=O)N[C@H](C(=O)O)[C@@H](C)O)[C@@H](C)O)C(C)C | – | IC50 ([1]; DRB1 *0101): 17300 nM
4 | ALGAQKEAISPPDAA | – | IC50 [2]: > 204 µM; IC50 [3]: > 21500 nM; IC50 [4]: > 71.2 µM; IC50 [5]: > 60.2 µM
5 | CCTSICSLYQLENY | 11700 | –
6 | KKPLNEILIRCIICQ | 1360 | –
7 | LEDLLMGTLGIVCP | 104 | –
8 | LSFFLKEKGGLDGL | – | IC50 [3]: 1280 nM
9 | MLDLQPETTDLYCYE | 10100 | –
10 | TCCYTCGTTVRLCIN | 1230 | –
11 | TLERPKTLSPQKNGV | 10100 | –
12 | VAQVRGGMVFELANS | 228 | –
13 | VASLLTTAEVVVTE | 604 | –
